# Binding of CDR-mutated scFvs to a peptide of the spike HR2 region

Target peptide (SARS-CoV-2 spike, HR2 region): PDVDLGDISGINAS

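The parent was found by panning a naive human phage display library on the peptide. Variants in AAYL52 differ from the parent at up to three CDR positions; double and triple changes were sampled at random. Affinity was read by AlphaSeq, a pooled yeast mating assay with surface-displayed partners. Mating (16 h, 30 °C) was followed by selection of diploids and sequencing of their barcodes. A regression on co-assayed BCL2-family reference pairs converts the normalised counts of each replicate to an apparent Kd. Each pool was mated in three replicate cultures.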

Each scFv is VH, a 15-residue (Gly4Ser)3 linker, VL, as in the parent Ab-95, and differs from it in the CDRs of the light chain only.
VH: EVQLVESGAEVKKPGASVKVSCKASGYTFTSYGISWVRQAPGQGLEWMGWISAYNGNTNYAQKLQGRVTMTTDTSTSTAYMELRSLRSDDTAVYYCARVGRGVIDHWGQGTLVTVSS
VL: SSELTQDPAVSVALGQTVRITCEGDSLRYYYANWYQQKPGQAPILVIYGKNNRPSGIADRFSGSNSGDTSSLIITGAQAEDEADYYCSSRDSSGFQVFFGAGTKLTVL

Substitutions are numbered in sequence along the VL above, starting at 1 (not Kabat). Every variant below is changed at S93 of the VL (sequential numbering). Kd is apparent (estimated from mating counts) and averaged on the log scale over replicates with a signal. Smaller is tighter. "no signal" means that the variant was in the library but no mating with the target was seen in any replicate; the authors take this as a sign of poor binding, and no number exists. As a blank, each scFv also met three strains without target: over library AAYL52, 28% of these pairings were detected, typically at 8.2 µM and seldom below 800 nM. Also given: how often the same scFv was detected with the empty control strains. In this assay the parent's reference entry averaged 200 nM; its copy inside this library read 180 nM.

* D25Y+S93A+F95C -> 840 nM (3 of 3 replicates; controls 2 of 9)
* Y29R+R90D+S93R -> 2.0 µM (3 of 3 replicates; controls 4 of 9)
* R53N+S88G+S93W -> 18 µM (1 of 3 replicates; controls 1 of 9)
* S26D+S93D+V97W -> 13 µM (1 of 3 replicates; controls 2 of 9)
* A32M+N52D+S93E -> 19 µM (1 of 3 replicates; controls 2 of 9)
* S55P+S92R+S93Q -> 400 nM (3 of 3 replicates; controls 3 of 9)
* S93K+G94C -> 260 nM (3 of 3 replicates; controls 1 of 9)
* R28V+S55W+S93V -> 21 µM (3 of 3 replicates; controls 2 of 9)
* Y29K+A32K+S93R -> 6.4 µM (1 of 3 replicates; controls 1 of 9)
* P54L+S93M+F95E -> 2.1 µM (3 of 3 replicates; controls 2 of 9)
* D25G+N52D+S93A -> 1.8 µM (3 of 3 replicates; controls 3 of 9)
* N33P+S88H+S93A -> 140 µM (2 of 3 replicates; controls 4 of 9)
* D25C+S92T+S93K -> 33 µM (1 of 3 replicates; controls 4 of 9)
* E23Q+N51H+S93H -> 14 µM (1 of 3 replicates; controls 1 of 9)
* P54C+S93R+G94D -> 87 nM (3 of 3 replicates; controls 3 of 9)
* R53Y+S93W -> no signal (0 of 3 replicates; controls 0 of 9)
* S88H+S93Y+V97H -> 4.4 µM (3 of 3 replicates; controls 1 of 9)
* G24D+S93R+F98T -> 3.5 µM (2 of 3 replicates; controls 2 of 9)
* S26D+A32K+S93E -> 18 µM (1 of 3 replicates; controls 1 of 9)
* E23S+D91C+S93F -> 1.2 µM (3 of 3 replicates; controls 2 of 9)
* S26Q+S93R+V97N -> no signal (0 of 3 replicates; controls 1 of 9)
* R90A+S93G -> 440 nM (3 of 3 replicates; controls 7 of 9)
* N52G+S93Q+Q96R -> 240 nM (3 of 3 replicates; controls 5 of 9)
* S26C+S93I+Q96Y -> 8.1 µM (2 of 3 replicates; controls 7 of 9)
* E23M+S88R+S93D -> 14 µM (2 of 3 replicates; controls 1 of 9)
* S93V+G94T+V97A -> 690 nM (3 of 3 replicates; controls 3 of 9)
* A32N+R90C+S93P -> 3.9 µM (2 of 3 replicates; controls 4 of 9)
* D25T+S88D+S93F -> 250 nM (3 of 3 replicates; controls 2 of 9)
* G49W+S93D -> 3.9 µM (2 of 3 replicates; controls 5 of 9)
* Y29C+S93L+G94E -> 7.9 µM (2 of 3 replicates; controls 2 of 9)
* S93M+F95Y+V97K -> no signal (0 of 3 replicates; controls 0 of 9)
* A32S+N52Q+S93M -> 600 nM (3 of 3 replicates; controls 2 of 9)
* N51Q+P54T+S93I -> 8.5 µM (1 of 3 replicates; controls 4 of 9)

Data: MIT Lincoln Laboratory AlphaSeq set, Engelhart et al. 2022, doi:10.1038/s41597-022-01779-4, as distributed in FLAb.